Results published in ChEMBL document CHEMBL5325394, “What We Have Gained from Ibogaine: α3β4 Nicotinic Acetylcholine Receptor Inhibitors as Treatments for Substance Use Disorders” (J Med Chem, 2023).

Target: Sigma non-opioid intracellular receptor 1 (Homo sapiens, UniProt Q99720)
Test: Antagonist activity at sigma 1 receptor (unknown origin)

`CN1C2CCCC1CC(Nc1ccccc1Br)C2` (stereo unspecified) was tested, and the IC50 was 84 nM.
